From ChEMBL document CHEMBL1147955, “Novel pyridyl-fused 3-amino chroman derivatives with dual action at serotonin transporter and 5-HT1A receptor” (Bioorg Med Chem Lett, 2007)

By UniProt entry, the sequences of proteins in these tests, tags left out.
UniProt P31652, whole entry: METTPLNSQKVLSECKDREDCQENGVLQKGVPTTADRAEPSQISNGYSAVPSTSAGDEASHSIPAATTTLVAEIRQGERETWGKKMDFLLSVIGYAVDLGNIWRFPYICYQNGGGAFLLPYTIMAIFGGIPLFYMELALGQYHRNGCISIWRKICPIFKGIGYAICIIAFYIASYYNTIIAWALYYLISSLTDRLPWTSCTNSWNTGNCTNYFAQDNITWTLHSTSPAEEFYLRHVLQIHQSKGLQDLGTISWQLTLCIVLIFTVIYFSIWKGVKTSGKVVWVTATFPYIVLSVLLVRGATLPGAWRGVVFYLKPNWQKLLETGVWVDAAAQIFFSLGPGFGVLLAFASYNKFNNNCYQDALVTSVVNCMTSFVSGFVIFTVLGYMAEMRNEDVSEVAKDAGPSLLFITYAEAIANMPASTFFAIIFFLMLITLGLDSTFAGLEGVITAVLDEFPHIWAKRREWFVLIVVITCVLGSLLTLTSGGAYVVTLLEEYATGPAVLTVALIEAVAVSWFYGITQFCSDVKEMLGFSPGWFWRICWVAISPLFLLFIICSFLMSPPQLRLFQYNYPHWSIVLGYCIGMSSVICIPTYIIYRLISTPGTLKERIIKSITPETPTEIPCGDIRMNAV

Target: Sodium-dependent serotonin transporter (Rattus norvegicus, UniProt P31652)
Assay: Displacement of [3H]paroxetine from 5HT reuptake site of rat cortical 5HTT

| Compound | Ki |
| --- | --- |
| Fc1ccc2[nH]cc(CCCNC3COc4ccc5ncccc5c4C3)c2c1 (racemic) | 2.4 nM |
| Fc1ccc2[nH]cc(CCCNC3COc4ccc5ncccc5c4C3)c2c1 (single isomer, unassigned; (-)) | 5.1 nM |
| Fc1ccc2[nH]cc(CCCNC3COc4ccc5ncccc5c4C3)c2c1 (stereo in doubt; (+)-5) | 1.3 nM |
